From patent US20250282824A1, “Inhibitors of the Wnt Signaling Pathway and Uses Thereof” (Stichting VU, priority 2021, published 2025)

Tested on: Wnt signaling pathway
Test: TOPFLASH reporter gene assay in HEK293T cells
Settings: read-out: IC50, concentration-dependent TOPFLASH reporter gene assay, c=0.512-50 μM, 24 h, n=3

Question: How did the pIC50 turn out when `CC(C)C[C@@H]1NC(=O)[C@H](CC(C)C)NC(=O)[C@H](CO)NC(=O)[C@H](CC(=O)O)NC(=O)[C@@H]2CCCN2C(=O)[C@H]2CCCN2C(=O)[C@H](C(C)C)NC(=O)[C@H](CC(=O)O)NC(=O)[C@H](CC(N)=O)NC(=O)[C@H](CCCNC(=N)N)NC(=O)[C@@H]2CSC/C=C/CSC[C@H](NC1=O)C(=O)N[C@@H](Cc1ccccc1)C(=O)NCCC(=O)NCCC(=O)N[C@@H](C(C)C)C(=O)N2` [A-b6, [βA-V-[C-R-N-D-V-p-P-D-S-L-L-C]-F-βA]/b6] was run?
Answer: 5.10

pIC50: −log10 of the molar value.
